IC50 data for one compound are collected here from publication PMC8725944, “Design and synthesis of chromone-nitrogen mustard derivatives and evaluation of anti-breast cancer activity” (Journal of Enzyme Inhibition and Medicinal Chemistry, 2021).

In test [1] the test system is TNBC cell line MDA-MB-231. Briefly: CCK-8 assay, antiproliferative activity against MDA-MB-231. Particulars: read-out: IC50 MDA-MB-231; CCK-8, 72 h, mean ± SD of three experiments. (In general: Tetrazolium assays rely on reduction of a dye to a coloured formazan, in cell work by metabolically active cells.)
In test [2] the test system is human mammary gland tumour cell line MCF-7. Briefly: CCK-8 assay, antiproliferative activity against MCF-7. The conditions noted are these: read-out: IC50 MCF-7; CCK-8, 72 h, mean ± SD of three experiments.

Some results are limits rather than exact numbers.

In general, IC50 refers to the concentration needed to halve the response being measured. For the compound `O=C(O)c1ccc(N(CCCl)CCCl)cc1`, the results for the IC50 in test [1] and in test [2] were over 20 µM and 12.1 µM, respectively.
